# Assay results as given in publication PMC12197871 (Protein Science : A Publication of the Protein Society, 2025).
# By UniProt entry, the sequences of proteins in these tests, tags left out. Where a name states a change or a piece, a line headed by the entry shows the natural chain unless it says otherwise.
# UniProt P00344: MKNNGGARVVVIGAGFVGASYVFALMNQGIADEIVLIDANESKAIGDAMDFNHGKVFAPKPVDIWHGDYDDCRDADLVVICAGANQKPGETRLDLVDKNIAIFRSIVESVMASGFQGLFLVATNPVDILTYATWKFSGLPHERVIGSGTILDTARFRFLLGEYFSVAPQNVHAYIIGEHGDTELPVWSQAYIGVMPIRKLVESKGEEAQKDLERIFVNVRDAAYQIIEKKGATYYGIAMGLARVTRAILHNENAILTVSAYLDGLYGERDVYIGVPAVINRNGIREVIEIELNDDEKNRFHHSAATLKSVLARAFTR
# Where two headings read alike, the source gives them in different places.
# Columns and labels:
# GsLDH [1] = molecular target: T1, GsLDH (Geobacillus stearothermophilus, UniProt P00344); assay: Isothermal titration calorimetry of cofactor binding to GsLDH; details: WT, presence of FBP, 30°C
# GsLDH [2] = molecular target: T1, GsLDH; details: fluorescence spectroscopy, both in the presence and absence of FBP, ref Clarke, Atkinson, et al., 1985; cited from earlier work
substance,measurement,setting,value
reduced nicotinamide adenine dinucleotide [NADH],Kd,GsLDH [1],1200 nM
same,Kd,GsLDH [2],1500 to 2000 nM
